# Measurements as given in patent US8378100B2, “Phosphonate derivatives as autotaxin inhibitors” (University of Virginia Patent Foundation, priority 2008, dated 2013).
# Tests used:
# recombinant human ATX = recombinant human ATX (Homo sapiens, UniProt Q13822); experiment: Choline detection assay for ATX
# Protocol: The phosphonate derivatives were tested in choline detection assay for ATX inhibition. The ATX activity assay was conducted in 0.1 ml, buffer: (in mM: Tris-HCl 100, pH9, NaCl 150, MgCl2 5, CoSO4 0.03, 0.05% Triton X-100), 1 mM 18:1 LPC, using recombinant human ATX with or without test compounds; incubation was for 16 hours at 37° C. The released choline was detected as follows: Samples were mixed with 0.15 ml of 50 mM TrisHCl containing 2.7 mM TOOS(N-ethyl-N-2-hydroxy-3-sulfopropyl)-m-toluidine, 2.7 mM 4-AAP (4-aminoantipyrine), 47.7 U/ml horseradish peroxidase, 18 U/ml choline oxidase, and 5 mM MgCl2. After 30 min incubation at 37° C., light absorbance (550 nm) was determined, and the amount of choline release was calculated from a standard curve.
# The ATX activity was measured in the presence of the test compounds under different concentrations (100 μM, 10 μM and 1 μM). The ATX activity without TEST compounds was used as the standard (100% activity). Some β-hydroxy phosphonate derivatives inhibited ATX activity at only the highest concentration tested. […] These two compounds were synthesized from protected L-tyrosine and they are diastereomers. The less polar isomer, f17, (also known as VPC8a202) was able to inhibit 73% of ATX activity at 1 μM.
# [1] = biological target: Human recombinant autotaxin (ATX) (Homo sapiens, UniProt Q13822); experiment: Kinetic study of f17 inhibition of ATX (choline release at various LPC concentrations); format: biochemical; conditions: +VPC8a202 (0.5 μM), activity as A555
# Protocol: FIG. 2 and FIG. 3 illustrate the kinetics of inhibition of ATX activity with test compound f17 (VPC8a202). The initial rate of recombinant ATX activity was measured calorimetrically at different concentrations of LPC in presence and absence of 0.5 μM VPC8a202. Activity was expressed as the release of choline during 18 hours and it is represented by the absorbance of the product at 555 nm (A555). Each point is the average of three measurements (FIG. 2). Consumed substrate was less than 10% in every case thus ensuring an initial rate of reaction. In FIG. 3, the results were fitted to a straight line by linear regression. The apparent Km for LPC was about 588 μM.
# Human recombinant autotaxin (ATX) was subcloned into the mammalian expression vector pcDNA3.1/V5His-TOPO (Invitrogen) and expressed as a C-terminus V5- and 6×His-tagged protein in HEK-293 cells using PolyFect® (Qiagen) as a transfection reagent. […] ATX activity was measured essentially as described by Umezu-Goto M., et al., J Cell Biol, 158: 227-233, 2002, by determining the release of choline after incubation at 37° C. for 18 h in 0.1 ml of a buffer consisting of 100 mM Tris-HCl, pH 9.0, 500 mM NaCl, 5 mM MgCl2, 0.03 mM CoCl2, 0.05% Triton X-100, 0.5 μM of f17 and various concentrations of oleoyl-LPC (lysophosphatidylcholine, Avanti Polar Lipids, Alabaster, Ala.). […]
structure (smiles),measurement,setting,value
"CCCCCCCCCCCCCCCC(=O)N[C@@H](Cc1ccc(OCc2ncc(C)c(OC)c2C)cc1)C(O)CP(=O)(O)O (single isomer, unassigned) [f18]",ATX activity (%) 1 μM,"recombinant human ATX; Table 1 (f1-f34), 1 μM test compound, activity without test compound = 100%",27%
same,ATX activity (%) 10 Mm,"recombinant human ATX; Table 1 (f1-f34), 10 μM test compound as printed, activity without test compound = 100%",13%
same,ATX activity (%) 100 μM,"recombinant human ATX; Table 1 (f1-f34), 100 μM test compound, activity without test compound = 100%",6%
same,inhibition of ATX (in words),recombinant human ATX; at 1 μM,significant inhibition
same,inhibition of ATX activity,recombinant human ATX; at 1 μM,73%
same,Vmax,[1]; linear regression on the double reciprocal plot,1.50
same,Vmax,[1]; non-linear regression on the direct plot,1.41
